Measured values from patent US20220218837A1, “DRUG CONJUGATE” (priority 2018, published 2022).

Legend:
[1] = tested on: HSP27 mRNA in A2058 cells (EGFR-); assay: HSP27 gene silencing in A2058 cells; type: cell-based, human; details: A2058; titrated + fixed 77 nM Cetuximab-(Cys-L-SO1861)^3,8 (1T2C combination)
Protocol: Cells were seeded in DMEM (PAN-Biotech GmbH) supplemented with 10% fetal bovine serum (PAN-Biotech GmbH) and 1% penicillin/streptomycin (PAN-Biotech GmbH), in a 96 well plate at 5,000 c/w in 100 μL/well and incubated overnight at 37° C. and 5% CO2. The next day samples were prepared in DMEM and cells were treated.
RNA isolation and Qper analysis was performed according to standard procedures and protocols.

[2] = tested on: MDA-MB-468 cells (EGFR++/HER2-/CD71+); assay: Cell killing / cell viability, MDA-MB-468 cells; type: cell-based, human; details: substance alone, no partner

Substance | pIC50 [1] | cell killing activity (words) [2]
cetuximab-(Lys-L-HSP27BNA)^4: HSP27BNA conjugated via lysine residues to cetuximab | < 7.00 | 
cetuximab-Cys-(dendron(-L-SO1861)^4)^3,9: Dendron(-L-SO1861)^4 conjugated to cetuximab via cysteine residues |  | not induced

pIC50: −log10 of the molar value.
